Measured values taken from PMC9386913, “CC-99677, a novel, oral, selective covalent MK2 inhibitor, sustainably reduces pro-inflammatory cytokine production” (Arthritis Research & Therapy, 2022).

The chains behind the UniProt entries cited, without tags or fusion partners.
UniProt P49137, whole entry: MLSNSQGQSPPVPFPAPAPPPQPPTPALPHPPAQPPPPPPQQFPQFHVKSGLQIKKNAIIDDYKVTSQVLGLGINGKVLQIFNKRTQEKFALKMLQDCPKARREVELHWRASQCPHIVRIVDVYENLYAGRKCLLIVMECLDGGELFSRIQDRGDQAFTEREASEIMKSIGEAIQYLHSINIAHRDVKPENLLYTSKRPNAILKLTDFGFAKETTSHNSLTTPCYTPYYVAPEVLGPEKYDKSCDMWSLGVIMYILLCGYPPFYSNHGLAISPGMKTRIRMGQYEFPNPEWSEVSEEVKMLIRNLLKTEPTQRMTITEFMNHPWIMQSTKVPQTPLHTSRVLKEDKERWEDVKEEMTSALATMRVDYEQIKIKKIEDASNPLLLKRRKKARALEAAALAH

Target: MK2 (Homo sapiens, UniProt P49137)

Structure (SMILES): CCOCc1cnc(Cl)nc1Oc1ccc2c(ccc3sc4c(c32)NC[C@@H](C)NC4=O)n1 [CC-99677]
- MK2 target engagement (150 mg): > 70%
- Average MK2 occupancy (120-mg dose cohort): approximately 70%
- Average MK2 occupancy (150-mg dose cohort): approximately 70%
- Average MK2 occupancy (day 8, 10-mg dose cohort): 28%
- Duration of MK2 occupancy after last dose (last dose day 14): stable until day 15 (1 day after the last dose) and returned to baseline levels 14 days after the last dose

Read-outs that look alike come from different tables or passages of the source.
